## Ab-14 heavy chain CDR variants: yeast mating affinities

Antigen: PDVDLGDISGINAS, a 14-residue peptide of the SARS-CoV-2 spike HR2 region.

The variants keep the light chain, the linker and the frameworks of Ab-14 (scFv order VH, three GGGGS repeats, VL).
VH: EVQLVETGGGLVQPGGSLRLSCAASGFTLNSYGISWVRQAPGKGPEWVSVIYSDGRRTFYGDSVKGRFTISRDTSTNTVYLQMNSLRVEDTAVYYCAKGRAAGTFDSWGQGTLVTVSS
VL: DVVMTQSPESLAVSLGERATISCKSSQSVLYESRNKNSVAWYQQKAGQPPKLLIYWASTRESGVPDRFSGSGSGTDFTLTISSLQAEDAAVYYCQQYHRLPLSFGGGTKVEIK

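Variants in AAYL49 differ from the parent at up to three CDR positions; double and triple changes were sampled at random. The scFvs were displayed on barcoded MATa yeast, the peptide on MATalpha yeast. After mating in shaken culture at 30 °C for 16 h, diploids were selected and their barcode pairs sequenced. Scores were corrected for input abundance and mapped to Kd with protein pairs of known affinity run in the same pool. Each pool was mated in three replicate cultures.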

Substitutions are numbered in sequence along the VH above, starting at 1 (not Kabat). Every variant below is changed at Y32 of the VH (sequential numbering). Each Kd is an estimate from the mating assay, the geometric mean of the replicates in which the pair was seen; lower is stronger. "nd" marks a missing value. The strain was present, yet no cells mated with the target were sequenced in any replicate, which points to weak or no binding. As a blank, each scFv also met three strains without target: over library AAYL49, 15% of these pairings were detected, typically at 11 µM and seldom below 680 nM.

changes,Kd,detected
Y32T/R56C/F59W,nd,0/3
Y32K/I34D,120 µM,1/3
Y32V/R56K/V64G,4.9 µM,1/3
G26H/Y32A/S35P,14 µM,1/3
Y32W/G33V/R57W,nd,0/3
Y32A/I34H/Y52S,2.2 µM,1/3
Y32P/Y52W/A101F,nd,0/3
Y32D/G55M/T104W,760 nM,1/3
L29G/Y32S/D54K,nd,0/3
L29E/Y32K/T104H,170 nM,3/3
G26L/Y32N/I51R,nd,0/3
N30G/Y32H/D54K,nd,0/3
Y32S/R100C,57 µM,3/3
F27D/Y32M/G61V,70 nM,3/3
Y32H/S35Y/R100I,110 µM,1/3
F27N/Y32S/G103F,110 µM,2/3
Y32C/G55H/V64I,nd,0/3
Y32C/I34G/V50F,960 µM,1/3
Y32M/F59A/Y60S,nd,0/3
N30T/Y32C/I51A,nd,0/3
Y32K/S35W/V64W,9.5 µM,1/3
Y32G/D54N/A102F,nd,0/3
L29V/N30S/Y32S,nd,0/3
Y32F/R100S,7.9 nM,3/3
S31C/Y32M/A101T,690 nM,3/3
Y32W/T58D/D62W,140 µM,1/3
Y32N/G55T/D62K,nd,0/3
Y32K/S35C,1.6 µM,2/3
Y32A/D54L/Y60E,27 µM,2/3
Y32A/G55F/G103A,15 µM,3/3
F27T/Y32T/I51M,140 µM,2/3
G26V/Y32F/V64R,160 µM,1/3
Y32S/D62K/A101H,nd,0/3
Y32S/Y52M/D62A,120 µM,1/3
Y32D/S53A/D106M,nd,0/3
Y32C/D54A/S107E,42 µM,1/3
Y32Q,65 nM,3/3
Y32D/S53P/D106H,nd,0/3
Y32R/R56A/T104D,nd,0/3
Y32I/G33M/S53G,nd,0/3
Y32W/G99I/F105V,nd,0/3
Y32C/I51N/T104R,nd,0/3
Y32M/S63Y/F105G,nd,0/3
G26L/Y32W/F59S,69 µM,2/3
G26E/Y32C/G61Y,18 µM,2/3
Y32V/T58W/S107Q,nd,0/3
Y32G/R56N,nd,0/3
N30F/Y32S/Y52Q,nd,0/3
Y32R/R57G/T58H,nd,0/3
Y32N/R57W/G61F,8.1 µM,2/3
Y32D/G99N,nd,0/3
Y32E/I34W/S35A,nd,0/3
Y32A/G61V/R100N,35 nM,3/3
Y32P/S63Y/R100W,280 µM,1/3
Y32V/D62S/V64N,nd,0/3
Y32V/G55M/R100E,nd,0/3
Y32P/R100H/G103Q,230 µM,1/3
Y32L,78 nM,3/3
T28W/Y32L/A102V,nd,0/3
F27Q/Y32K/G103N,nd,0/3

From the list, the first 6 with no signal in any replicate:

changes	Kd	detected
Y32T/R56C/F59W	nd	0/3
Y32W/G33V/R57W	nd	0/3
Y32P/Y52W/A101F	nd	0/3
L29G/Y32S/D54K	nd	0/3
G26L/Y32N/I51R	nd	0/3
N30G/Y32H/D54K	nd	0/3

Values reported by Engelhart et al. 2022, doi:10.1038/s41597-022-01779-4 (FLAb copy).